Experiments:
iNOS = biological target: T1, iNOS (Homo sapiens, UniProt P35228); assay: NOS inhibition assay (L-citrulline, fluorometric detection), iNOS; format: biochemical; settings: read-out: Enzyme percent inhibition, positive control
T1 construct: purchased Enzo Life Sciences, Inc. (New York, USA)
Method: (§1) The investigated compounds were tested at 1 µM against the iNOS and 10 µM against the eNOS to determine their isoform selectivity. Because of its critical role in cardiovasculature, inhibiting the constitutive enzyme eNOS should be avoided.
(§2) Refer to Supplementary Appendix SA1 for more details.
(§3) 4.2.4. NOS inhibition assay
(§4) Recombinant human iNOS was purchased from Enzo Life Sciences, Inc. (New York, USA).
(§5) Recombinant bovine eNOS was purchased from Cayman Chemical (Ann Arbor, USA). To measure iNOS activity, 10 μL of enzyme stock solution were added to 80 μL of 2-[4-(2-hydroxyethyl) piperazin-1-yl]ethanesulfonic acid (HEPES) buffer pH = 7.4, 100 mM, containing 0.1 mM CaCl2, 1 mM D,L-dithiothreitol (DTT), 0.5 mg/mL BSA, 10 μM flavin mononucleotide (FMN), 10 μM flavin adenine dinucleotide (FAD), 30 μM tetrahydrobiopterin (BH4), 10 μg/mL calmodulin (CaM), 10 μM L-Arg. For the eNOS activity evaluation, 25 μL of the enzyme stock solution were added to 65 μL of HEPES buffer containing 2 mM CaCl2 and the same cofactors […]
(§6) μM) were added to the enzyme assay solution, followed by pre -incubation of 15 min at 37 ◦C.
(§7) Each reaction was initiated by the addition of 10 μL of NADPH 7.5 mM, carried out at 37 ◦C for 30 min, and stopped by adding 500 μL of ice -cold CH3CN. The mixture was brought to dryness under vacuum and eventually stored at – 20 ◦C, before the HPLC analysis. […]

eNOS = biological target: T2, eNOS (Bos taurus, UniProt P29473); assay: NOS inhibition assay (L-citrulline, fluorometric detection), eNOS; format: biochemical, bovine
T2 construct: purchased Cayman Chemical (Ann Arbor, USA)
Method: as §1, §2, §3, §4, §5, §6, §7

CC(=N)NCc1cccc(CN)c1 [1400 W, reference compound]
inhibition at 10 µM (iNOS): 100%
IC50 (eNOS): > 50 µM

— paper PMC11414412, “Design and synthesis new indole-based aromatase/iNOS inhibitors with apoptotic antiproliferative activity” (Frontiers in Chemistry, 2024)
